Laboratory results published in patent US5847088A, “Antibodies specific for platelet-activating factor acetylhydrolase” (ICOS Corporation, priority 1995, dated 1998).

Test system: low and high density lipoproteins

B1: PAF-AH: Recombinant human plasma platelet-activating factor acetylhydrolase (beginning at Ile42 of SEQ ID NO:8) expressed in E. coli (protein, UniProt Q13093 22-441, looked up)
Platelet-activating factor …: FDWQYINPVAHMKSSAWVNKIQVLMAAASFGQTKIPRGNGPYSVGCTDLMFDHTNKGTFLRLYYPSQDNDRLDTLWIPNKEYFWGLSKFLGTHWLMGNILRLLFGSMTTPANWNSPLRPGEKYPLVVFSHGLGAFRTLYSAIGIDLASHGFIVAAVEHRDRSASATYYFKDQSAAEIGDKSWLYLRTLKQEEETHIRNEQVRQRAKECSQALSLILDIDHGKPVKNALDLKFDMEQLKDSIDREKIAVIGHSFGGATVIQTLSEDQRFRCGIALDAWMFPLGDEVYSRIPQPLFFINSEYFQYPANIIKMKKCYSPDKERKMITIRGSVHQNFADFTFATGKIIGHMLKLKGDIDSNVAIDLSNKASLAFLQKHLGLHKDFDQWDCLIEGDDENLIPGTNINTTNQHIMLQNSSGIEKYN
  association with lipoproteins: associated with low and high density lipoproteins in the same manner as the native activity
